Paper doi:10.1101/2021.10.07.463234v2 (biorxiv, 2021)
Counter-ions that a name gives are not always drawn. Like-named read-outs stand apart in the source and are kept apart here.

Tests used:
SARS-CoV-2 Mac1 [1] = biological target: T1, SARS-CoV-2 Mac1 (Severe acute respiratory syndrome coronavirus 2, UniProt P0DTD1)
SARS-CoV-2 Mac1 [2] = biological target: T1, SARS-CoV-2 Mac1; assay: biochemical; conditions: read-out: %inhibition

Compound | %inhibition (SARS-CoV-2 Mac1 [1]; 100 µM; inhibitor) | further results
CC(=O)OC1CN2CCC1CC2 (stereo not shown) [Aceclidine HCl] | 0% | 
Cn1c(CCCC(=O)O)nc2cc(N(CCCl)CCCl)ccc21 [Bendamustine HCl] | 62.81% | 
C[N+]12CCC(CC1)C(OC(=O)C(O)(c1ccccc1)c1ccccc1)C2 (stereo not shown) [Clidinium Bromide] | 0% | 
O=P1(N(CCCl)CCCl)NCCCO1 (stereo not shown) [Cyclophosphamide Monohydrate] | 0% | 
O=C(O[C@H]1CN2CCC1CC2)N1CCc2ccccc2[C@@H]1c1ccccc1 [Solifenacin succinate] |  | %inhibition (SARS-CoV-2 Mac1 [1]; 100 µM, inhibitor): 5.887%
O=C(O[C@H]1CN2CCC1CC2)N1CCc2ccccc2[C@@H]1c1ccccc1 [Solifenacin] |  | %inhibition (SARS-CoV-2 Mac1 [1]; 100 µM, inhibitor): 0%
CCC1=C[C@@H]2CN(C1)Cc1c([nH]c3ccccc13)[C@@](C(=O)OC)(c1cc3c(cc1OC)N(C)[C@H]1[C@@](O)(C(=O)OC)[C@H](OC(C)=O)[C@]4(CC)C=CCN5CC[C@]31[C@@H]54)C2 [Vinorelbine Tartrate] |  | inhibition at 100 µM (SARS-CoV-2 Mac1 [2]): 0%
